Assay results published in patent US20240262807A1, “COMPOUND USED AS BCR-ABL INHIBITOR” (CHIA TAI TIANQING PHARMACEUTICAL GROUP CO., LTD., priority 2021, published 2024).
Where two headings read alike, the source gives them in different places.

Chains of the proteins cited; added tags and fusions are not shown.
UniProt P00519, whole entry T315I: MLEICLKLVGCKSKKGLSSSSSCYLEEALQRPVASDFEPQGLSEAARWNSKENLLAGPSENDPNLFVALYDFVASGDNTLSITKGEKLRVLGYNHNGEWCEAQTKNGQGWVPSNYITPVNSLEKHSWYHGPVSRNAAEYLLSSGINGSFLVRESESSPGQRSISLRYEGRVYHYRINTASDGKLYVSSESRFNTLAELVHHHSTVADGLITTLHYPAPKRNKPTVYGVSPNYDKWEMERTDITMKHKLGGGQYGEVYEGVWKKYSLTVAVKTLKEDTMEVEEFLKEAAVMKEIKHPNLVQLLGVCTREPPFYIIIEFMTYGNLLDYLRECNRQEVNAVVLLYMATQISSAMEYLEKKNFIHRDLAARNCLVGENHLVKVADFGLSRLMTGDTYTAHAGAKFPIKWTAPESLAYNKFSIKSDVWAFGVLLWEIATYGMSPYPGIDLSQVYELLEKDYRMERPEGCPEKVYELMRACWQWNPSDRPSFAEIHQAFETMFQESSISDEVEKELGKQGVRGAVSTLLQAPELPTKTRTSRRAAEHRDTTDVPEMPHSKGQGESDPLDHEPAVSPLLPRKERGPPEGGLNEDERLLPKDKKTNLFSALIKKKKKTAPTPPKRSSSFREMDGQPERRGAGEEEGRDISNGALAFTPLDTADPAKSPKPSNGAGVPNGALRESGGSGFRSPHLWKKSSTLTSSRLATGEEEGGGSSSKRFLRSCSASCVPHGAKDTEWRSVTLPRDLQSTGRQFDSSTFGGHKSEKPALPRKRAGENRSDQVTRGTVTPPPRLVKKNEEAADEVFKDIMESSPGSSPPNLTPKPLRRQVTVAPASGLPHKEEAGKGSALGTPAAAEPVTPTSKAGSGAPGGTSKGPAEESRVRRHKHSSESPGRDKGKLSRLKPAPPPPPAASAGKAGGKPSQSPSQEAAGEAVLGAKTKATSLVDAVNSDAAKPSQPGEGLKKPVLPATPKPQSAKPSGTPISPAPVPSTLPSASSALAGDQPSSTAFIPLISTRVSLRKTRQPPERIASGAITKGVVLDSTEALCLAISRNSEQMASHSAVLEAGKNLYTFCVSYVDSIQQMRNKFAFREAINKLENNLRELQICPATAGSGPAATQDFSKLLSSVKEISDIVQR

Legend:
K562 cells = experiment: Inhibitory effect of compounds on proliferation of K562 cells (CCK-8); settings: read-out: IC50 (nM) K562
[1] = target: Ba/F3-BCR-ABL1-T315I-C3 cells (Homo sapiens, UniProt P00519, T315I, cells depend on it); experiment: Inhibitory effect of compounds on proliferation of BCR-ABL T315I-transfected Ba/F3 cells (CCK-8); settings: read-out: IC50 (nM) Ba/F3-BCR-ABL1 T315I, 72 h with compound, CCK-8, 5% serum
Method: Ba/F3-BCR-ABL1-T315I-C3 cells in logarithmic growth phase and good cell condition were added to a centrifuge tube and centrifuged at 1000 rpm for 5 min in a low speed centrifuge. The supernatant was discarded, and 5 mL of complete medium (RPMI 1640 basic medium+10% FBS) was added using a pipette for cell resuspension. The cells were counted using a cell counter, diluted with complete medium to a cell density of 6×10^4 cells/mL, and an equivalent amount of RPMI 1640 basic medium was added to adjust the serum concentration to 5% and the cell density to 3×10^4 cells/mL for plate seeding. The cells were seeded on a 96-well plate at 100 μL/well using a multi-channel pipette and cultured in a cell incubator at 37° C. 5% CO2 and saturated humidity. After 24 h incubation, compounds were loaded using a nanoliter pipettor, 8 concentrations (1000 nM, 250 nM, 63 nM, 16 nM, 3.9 nM, 0.98 nM, 0.24 nM, 0.061 nM) were set for each compound, and 2 replicate wells were set for each concentration; cells with no compounds added were taken as a negative control, and a plating medium with no cells added was taken as a blank control. After 72 h. CCK-8 was added into Ba/F3-BCR-ABL1 T315I cells at 10 μL/well, the cells were placed at 37° C. for 1 h, and then the absorbance was measured at 450 nm with an Envision plate reader, and inhibition rate was calculated. Inhibition rate (%)=(mean value of negative control group−mean value of experimental group)/(mean value of negative control group−mean value of blank group)×100%. A dose-response curve was fitted by four-parameter analysis, with the logarithm of compound concentration serving as abscissa and inhibition rate serving as ordinate, such that ICso was calculated.

[2] = K562 cells, 72 h with compound, CCK-8, 5% serum

Row | Compound | GI50 [1] [nM] | IC50 (K562 cells; [2]) [nM] | IC50 (K562 cells) [nM]
1 | CO[C@@H]1CCN(c2ncc(C(=O)Nc3ccc(OC(F)(F)Cl)cc3)cc2-c2ccn(C)c(=O)c2)C1 | 9.6 |  | 4.8
2 | Cn1ccc(-c2cc(C(=O)Nc3ccc(OC(F)(F)Cl)cc3)cnc2N2CCC2)cc1=O | 7.5 |  | 3.8
3 | O=C(Nc1ccc(OC(F)(F)Cl)cc1)c1cnc(N2CCOCC2)c(-c2ccn(C3CC3)c(=O)c2)c1 | 20 | 9 | 
4 | O=C(Nc1ccc(OC(F)(F)Cl)cc1)c1cnc(N2CC[C@@H](O)C2)c(-c2cnn3c2COCC3)c1 | 4.3 | 1.7 | 
5 | Cn1ccc(-c2cc(C(=O)Nc3ccc(OC(F)(F)Cl)cc3)cnc2N2CC(F)C2)cc1=O | 13 |  | 4.1
6 | Cn1ncc(-c2cc(C(=O)Nc3ccc(OC(F)(F)Cl)cc3)cnc2N2C3CCC2COC3)cc1=O | 9.5 | 17 | 
7 | CO[C@H]1CCN(c2ncc(C(=O)Nc3ccc(OC(F)(F)Cl)cc3)cc2-c2ccn(C)c(=O)c2)C1 | 19 | 9.3 | 

Continued, in another order:

Row | GI50 [1] [nM] | IC50 (K562 cells; [2]) [nM] | Compound | IC50 (K562 cells) [nM]
8 | 14 | 3.8 | Cn1ccc(-c2cc(C(=O)Nc3ccc(OC(F)(F)Cl)cc3)cnc2N2CCC2CO)cc1=O (single isomer, unassigned) | 
9 | 1.1 |  | CN1CCc2cc(-c3cc(C(=O)Nc4ccc(OC(F)(F)Cl)cc4)cnc3N3CC(O)C3)[nH]c2C1=O | 
10 | 18 | 14 | Cn1ccc(-c2ncc(C(=O)Nc3ccc(OC(F)(F)Cl)cc3)cc2-c2cnn(C)c(=O)c2)n1 | 
11 | 8.4 | 3.7 | Cn1ccc(-c2cc(C(=O)Nc3ccc(OC(F)(F)Cl)cc3)cnc2N2CCOCC2)c(F)c1=O | 
